Measurements taken from ChEMBL document CHEMBL2151002 (J Med Chem, 2012).

By UniProt entry, the sequences of proteins in these tests, tags left out.
UniProt P61169, whole entry: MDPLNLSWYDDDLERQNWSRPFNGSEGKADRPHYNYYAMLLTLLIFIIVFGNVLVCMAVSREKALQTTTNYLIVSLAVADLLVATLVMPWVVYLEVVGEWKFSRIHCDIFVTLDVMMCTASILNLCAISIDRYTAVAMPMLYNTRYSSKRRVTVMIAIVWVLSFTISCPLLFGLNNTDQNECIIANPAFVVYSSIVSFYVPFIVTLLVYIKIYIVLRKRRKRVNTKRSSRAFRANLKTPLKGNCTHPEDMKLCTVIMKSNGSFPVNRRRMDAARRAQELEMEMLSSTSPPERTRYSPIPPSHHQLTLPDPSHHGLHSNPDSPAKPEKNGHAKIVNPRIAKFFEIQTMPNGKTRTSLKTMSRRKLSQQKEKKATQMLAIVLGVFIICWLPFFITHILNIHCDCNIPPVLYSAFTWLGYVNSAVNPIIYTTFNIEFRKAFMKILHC
UniProt P14416, whole entry: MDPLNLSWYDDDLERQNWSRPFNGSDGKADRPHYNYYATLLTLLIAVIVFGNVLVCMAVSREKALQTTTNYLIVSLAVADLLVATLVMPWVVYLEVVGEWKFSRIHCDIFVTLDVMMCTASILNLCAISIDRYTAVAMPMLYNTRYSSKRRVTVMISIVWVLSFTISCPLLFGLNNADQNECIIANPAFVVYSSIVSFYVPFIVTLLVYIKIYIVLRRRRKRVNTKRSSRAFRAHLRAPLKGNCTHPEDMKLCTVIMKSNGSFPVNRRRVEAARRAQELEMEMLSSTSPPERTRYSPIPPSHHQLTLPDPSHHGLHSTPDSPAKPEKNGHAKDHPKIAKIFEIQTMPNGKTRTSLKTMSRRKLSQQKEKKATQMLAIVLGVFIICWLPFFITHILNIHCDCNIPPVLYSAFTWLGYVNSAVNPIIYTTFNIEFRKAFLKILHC

Columns and labels:
Rattus norvegicus = organism: Rattus norvegicus; assay: Selectivity ratio of Ki for rat cloned dopamine D2L receptor to Ki for rat cloned dopamine D3 receptor
D(2) dopamine receptor [1] = target: D(2) dopamine receptor (Rattus norvegicus, UniProt P61169); assay: Displacement of [3H]spiroperidol from rat cloned dopamine D2L receptor expressed in HEK293 cells; type: cell-based
D(2) dopamine receptor [2] = target: D(2) dopamine receptor (Homo sapiens, UniProt P14416); assay: Agonist activity at human cloned dopamine D2 receptor expressed in CHO cells by [35S]GTPgammaS binding assay; type: functional, cell-based

| SMILES | Ratio Ki (Rattus norvegicus) | Ki (D(2) dopamine receptor [1]) | EC50 (D(2) dopamine receptor [2]) |
| --- | --- | --- | --- |
| CCCN(CCCCN1CCN(C(=O)c2cc3ccccc3[nH]2)CC1)C1CCc2nc(N)sc2C1 (racemic) | 305 | 531 nM |  |
| CCCN(CCN1CCN(C(=O)c2cc3ccccc3[nH]2)CC1)[C@H]1CCc2nc(N)sc2C1 |  |  | 114 nM |
